The conditions of this data set: human, in vivo, iv. The protocol:
Twelve human subjects participated in the following study. The resistance (R) and the reactance (Xc) of each patient was measured using a four-terminal impedance plethysmograph. During the measurement, the subjects were placed in the supine position on an insulative surface. The electrodes were attached in the following manner. Those areas of the patient's skin where the electrodes were to be connected were cleaned thoroughly with alcohol. […]
The elimination rate constant was determined by nonlinear regression analysis of the serum concentration data for each patient using Micrononlin (Micrononlin, Elite Software, box 11223. Pittsburgh. PA 15238).
Volume of distribution was calculated by the Sawchuk-Zaske method.
Calculation of (K) and (V) from the measured serum concentration data was performed as were the dosage regimens using the measured serum concentration data by the equations of Sawchuk and Zaske which will be known to those skilled in the art.

For the substance gentamicin, the “Volume of Distribution (V), Meas., mean” value was “.345 kg⁻¹”.

For the origin of these results see patent US4880014A, “Method for determining therapeutic drug dosage using bioelectrical resistance and reactance measurements” (priority 1988, dated 1989).
